The assay deals with COX-1 (Homo sapiens, UniProt P23219). Kind of assay: Inhibition of host inflammation factor COX-1. Type of assay: biochemical. As to conditions: read-out: COX-1 % inhibition.

Amino acid sequences for entries named in this document (tags omitted). Residues count along the entry.
UniProt P23219, 24-599: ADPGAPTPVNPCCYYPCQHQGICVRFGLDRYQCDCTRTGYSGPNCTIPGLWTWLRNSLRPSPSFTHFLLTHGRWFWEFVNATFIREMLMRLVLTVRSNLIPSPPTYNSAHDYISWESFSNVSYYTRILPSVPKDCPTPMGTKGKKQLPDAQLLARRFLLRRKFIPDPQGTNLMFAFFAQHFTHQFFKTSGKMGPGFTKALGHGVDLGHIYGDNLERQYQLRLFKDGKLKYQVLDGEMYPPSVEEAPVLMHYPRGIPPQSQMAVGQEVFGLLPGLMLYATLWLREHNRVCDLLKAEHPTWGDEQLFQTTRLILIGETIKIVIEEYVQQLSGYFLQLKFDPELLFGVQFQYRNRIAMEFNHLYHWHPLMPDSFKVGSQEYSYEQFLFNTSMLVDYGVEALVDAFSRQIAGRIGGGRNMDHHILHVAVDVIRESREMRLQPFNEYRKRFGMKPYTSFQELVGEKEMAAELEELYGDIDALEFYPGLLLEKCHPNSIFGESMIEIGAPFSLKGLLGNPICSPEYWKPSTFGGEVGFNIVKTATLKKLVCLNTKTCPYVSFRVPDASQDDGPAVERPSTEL

As to `C=CCc1ccc(O)c(OC)c1` [Eugenol], the inhibition – broadly, the percentage by which the read-out fell short of the control – at 200 µM was above 25%.
Take `Cc1ccc(C(C)C)cc1O` [Carvacrol]: the inhibition at 200 µM was above 50%.

Source of the values: US20080253976A1, “Personal Care Compositions Comprising An Antimicrobial Blend of Essential Oils or Constituents Thereof” (priority 2007, published 2008).
